Target: T1, μ-opioid receptors (Rattus norvegicus, UniProt P33535)
T1 construct: from tissue; host or cells: rat brain homogenate
Test: Opioid receptor binding studies with [3H]DAMGO on rat's brain homogenisates

Amino acid sequences for entries named in this document (tags omitted).
UniProt P33535, whole entry: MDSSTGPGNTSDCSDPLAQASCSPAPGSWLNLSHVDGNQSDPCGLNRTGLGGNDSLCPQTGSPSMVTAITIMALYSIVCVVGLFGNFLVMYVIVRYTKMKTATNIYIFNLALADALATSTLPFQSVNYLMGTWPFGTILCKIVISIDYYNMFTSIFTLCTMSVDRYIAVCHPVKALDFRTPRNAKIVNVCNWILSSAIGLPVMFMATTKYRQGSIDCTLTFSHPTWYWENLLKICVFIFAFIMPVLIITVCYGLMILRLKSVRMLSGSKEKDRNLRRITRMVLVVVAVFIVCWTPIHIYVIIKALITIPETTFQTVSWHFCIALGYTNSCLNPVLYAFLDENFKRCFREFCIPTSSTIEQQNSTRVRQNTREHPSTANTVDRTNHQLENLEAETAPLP

SMILES	Ki [nM]
CO[C@@]12CC[C@H](N[C@@H](C)C(=O)O)[C@@H]3Oc4c(O)ccc5c4[C@@]31CCN(C)C2C5 [Compound 7, (2′S)-2′-(4,5α-epoxy-3-hydroxy-14β-methoxy-17-methylmorphinan-6α-ylamino)-propionic acid bis(tetrafluoroborate)]	0.77
CO[C@@]12CC[C@@H](N[C@@H](C)C(=O)O)[C@@H]3Oc4c(O)ccc5c4[C@@]31CCN(C)C2C5 [Compound 8, (2′S)-2′-(4,5α-epoxy-3-hydroxy-14β-methoxy-17-methylmorphinan-6β-ylamino)-propionic acid bis(tetrafluoroborate)]	1.9

From patent US20090209570A1 (priority 2001, published 2009)
